Molecular target: human angiotensin AT1 (Homo sapiens, UniProt P30556)
Assay: Angiotensin AT1 antagonist assay
Assay type: cell-based

CCCc1nc2c(C)cc(-c3nc4ccccc4n3C)cc2n1Cc1ccc(-c2ccccc2C(=O)O)cc1 [telmisartan]
IC50: 2.51 nM

From PMC6868653 (Pharmacology Research & Perspectives, 2019)
